Laboratory results as given in patent US9629848B2, “Compounds that modulate autoimmunity and methods of using the same” (The Regents of the University of Colorado, a body corporate, priority 2011, dated 2017).

Tested on: clone 5 T cell hybridoma (DQ8 restricted T cell that responds to insulin B:9-23)
Assay: T cell stimulation assay, clone 5 T cell hybridoma with insulin B:9-23 peptide
Conditions: read-out: T cell stimulation Assay Clone 5 & B:9-23 (IC50); IL-2 in supernatant after overnight culture; < means lower concentrations have not been used

**Q.** How did the pIC50 turn out when [H]/N=C(\NCCBr)NN(O)O was run?
**A.** Its pIC50 is over 7.00.

pIC50: −log10 of the molar value.
